This data set is described as follows: Thermodynamic aqueous solubility. The conditions noted are these: for Solubility: aqueous.

As to Choline, the “aqueous solubility relative to the other salts” value is “higher aqueous solubility”. In addition, the Solubility (crystalline salt prepared from Dioxane (5 Vols)) came to 8570 µg/mL. Also, the Solubility (crystalline salt prepared from Ethyl Acetate (10 Vols)) came to 9320 µg/mL. For the same substance, the Solubility (crystalline salt prepared from MeCN (300 Vols)) came out at 9210 µg/mL.

The values above are taken from patent US9783503B2, “Crystalline forms of an estrogen receptor modulator” (Genentech, Inc., priority 2014, dated 2017).
